In patent publication US6613322B2, “Method for treating a subject suffering from conditions associated with an extracellular zinc sphingomyelinase” (The Trustees of Columbia University in the City of New York, priority 1997, dated 2003):

Tested on: S-SMase secretion by HUVECs
Assay: Cytokine regulation of S-SMase secretion by HUVECs (SMase activity in conditioned media)
Format: cell-based, human
Conditions: 18 h, interferon-β 1000 units/ml, IL-4 10 ng/ml
Experimental: FIGS. 23A-B. Cytokine regulation of S- and L-SMase of HUVECs. HUVECs were incubated for 18 h in DMEM, 0.2% BSA alone or containing human recombinant interleukin-1β (5 ng/ml) interferon-γ (1000 units/ml) interferon-β (1000 units/ml), and interleukin-4 (10 ng/ml) for 18 h. Conditioned media (FIG. 23A) and cell homogenates (FIG. 23B) from these cells were then assayed for SMase activity in the presence or absence of 0.1 mM ZnCl2, respectively.
Cells—Primary cultures of HUVEC were obtained from fresh umbilical cords and maintained in cell culture as previously described (31). Human coronary artery endothelial cells from a donor were purchased from Clonetics Corp. (San Diego, Calif.; cat. # CC-2585, Strain #3033). The cells were grown in endothelial basal media (EBM) (Clonetics) supplemented with 10% HI-FES; 10 μg endothelial cell growth supplement/ml (Sigma; cat. # E0760) and 50 μg gentamicin/ml. Primary cultures of bovine aortic endothelial, cells were established and subcultured as described previously (32). […]

accumulation of S-SMase in conditioned media (qualitative): substantially increased
Substance: interferon-β: human recombinant interferon-β
